The list is not random: actives were taken first. Their share in the collection is about 0.43%.
GIV-Gai inh = inhibitors of GIV peptide binding to Galpha-i3, primary screen, biochemical, fluorescence polarization, FITC-GIV GBA peptide, rat Galphai3 | Guanine nucleotide-binding protein G(i) subunit alpha-3 (Rattus norvegicus), P08753 | 90 min; hits give low values; scaled: aluminum fluoride 0%, vehicle 100% | percent of control (FP), % (test concentration not listed) | hit rate 0.42% among 210,000 | AID 1224905, 2016;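 active = replicate mean at 85% of control or lower, very high polarization wells dropped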;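 note: wells of about 15 µL received 100 nL stock; the first replicate is given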
HCMV UL50-53 inh = disrupts HCMV UL50-UL53 complex binding; HTRF UL50-UL53 interaction, normalized percent inhibition; inhibition, % (concentration not given with the values); 190,000 tested, 0.15% active; in the data active = inhibition above about 27%, passing the limit was not always enough
* = called active by the depositor; · = no result.

Protein sequences, listed by entry. Tags and fused reporters are not part of them.
Guanine nucleotide-binding protein G(i) subunit alpha-3 (Rattus norvegicus), P08753, UniProt P08753, whole entry, looked up: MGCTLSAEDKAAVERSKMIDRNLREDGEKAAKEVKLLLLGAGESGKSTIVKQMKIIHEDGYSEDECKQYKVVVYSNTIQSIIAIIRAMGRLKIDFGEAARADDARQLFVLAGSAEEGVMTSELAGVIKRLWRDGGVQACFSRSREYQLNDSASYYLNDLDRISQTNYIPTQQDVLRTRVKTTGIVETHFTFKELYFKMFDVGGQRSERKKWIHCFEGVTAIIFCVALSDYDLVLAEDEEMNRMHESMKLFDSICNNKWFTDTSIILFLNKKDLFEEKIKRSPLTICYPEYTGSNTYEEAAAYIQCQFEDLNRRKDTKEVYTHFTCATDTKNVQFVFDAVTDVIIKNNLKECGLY

SMILES | GIV-Gai inh | HCMV UL50-53 inh
O=C1c2cccc([N+](=O)[O-])c2C(=O)N1C1C(=O)N(c2ccc(F)cc2)C1c1cccs1 (configuration not stated) | 110 | ·
Cc1ccc(-n2cc(-c3nc4c(cnn4Cc4cccnc4)[nH]3)cn2)cc1 | · | -3
Cc1csc(NC2c3ccccc3C(=O)N2Cc2ccccc2)n1 (configuration not stated) | 99 | ·
CCn1cc(C(=O)n2ccnc2)c2cc(S(=O)(=O)N(C)C)ccc21 | 104 | ·
Cc1ccc([N+](=O)[O-])cc1N1C(=O)C2C3c4ccccc4C(c4ccccc43)C2C1=O (configuration not stated) | 98 | ·
CC(=O)N1CC=C2C(C#N)=C(N)C(C#N)(C#N)[C@H](c3ccc(F)cc3F)[C@H]2C1 | · | -36
CCCN1CC=C2C(C#N)=C(N)C(C#N)(C#N)C(c3ccc(F)cc3F)C2C1 (configuration not stated) | 44* | -40
O=C(NCc1ccccc1)c1cc(-c2ccco2)nc2ccccc12 | · | -20
N#Cc1c(N2CCCC2)nc(N)c2c(N)nc(N3CCCC3)cc12 | · | 97*
Cc1cc(C)c(C#N)c(N2CCCC2)n1 | 109 | 0
CN(CCCNC(=O)c1cccc(NC(=O)c2nnc(COc3ccccc3)s2)c1)c1ccccc1 | 104 | -11
N#CC1=C(N)OC2=C(CC/C2=C/c2ccccc2)C1c1ccccc1 (configuration not stated) | -57* | -42
CCN1CC2=C(OC(N)=C(C#N)C2c2ccc(F)cc2)/C(=C/c2ccc(F)cc2)C1 (configuration not stated) | 123 | ·
O=C(NCC1COc2ccccc2O1)c1cc(-c2ccco2)nc2ccccc12 (configuration not stated) | · | -25
Cc1noc(C)c1CC(=O)Nc1cccc(-n2cnnn2)c1 | · | -16
COCCn1ccc2c(OCC(=O)NCc3ccco3)cccc2c1=O | 111 | -1
CC(=O)n1c(O)c(/C=C2\C=c3ccc(C)cc3=NC2=O)sc1=N | 111 | ·
CC(=O)n1c(/C=C2\C=c3ccccc3=NC2=O)c(O)[nH]c1=S | 49* | 15
CCN1C(=O)/C(=C\C=C2/N(CC)c3ccc(C(=O)OC)cc3N2CC)SC1=S | -74* | -44
CCN=C1S/C(=C\c2ccc(C(=O)OC)cc2)C(=O)N1CC | 100 | -58
COc1ccc2cc3n(c2c1)CC(C)(C(=O)NCC1CCCO1)N(CCC(C)C)C3=O (configuration not stated) | 99 | -1
Cc1ccc2c(c1)N(C(=O)CCC(=O)N1CCC(C)CC1)CC(C)O2 (configuration not stated) | 97 | -15
O=c1oc2cc(O)ccc2cc1-c1nnc(Nc2ccccc2F)s1 | 231 | -39
O=c1oc2cc(O)ccc2cc1-c1nc2ccccc2s1 | -79* | -60
COc1cccc(Nc2nnc(-c3cc4ccc(O)cc4oc3=O)s2)c1 | -69* | ·

(listing goes on)
SMILES | GIV-Gai inh | HCMV UL50-53 inh
O=C(Oc1ccc2cc(-c3nc4ccccc4s3)c(=O)oc2c1)c1ccco1 | -42* | ·
O=C(Oc1ccc2cc(-c3ccc(F)cc3)c(=O)oc2c1)c1ccco1 | 108 | -16
O=c1oc2cc(O)ccc2cc1-c1nnc(NCc2ccccc2)s1 | -32* | ·
CCOc1ccc2cc(-c3nc4ccccc4s3)c(=O)oc2c1 | 107 | -16
COc1ccc(Nc2nnc(-c3cc4c(ccc5ccccc54)oc3=O)s2)cc1 | 102 | -25
Cc1[nH]c2ccccc2c1C=Nc1ccc(Cl)cc1C(=O)c1ccccc1 | · | -19
O=C(Cc1n[nH]c(=O)c2ccccc12)Nc1cc(C(F)(F)F)ccc1N1CCCC1 | · | -4
CN(C)c1ccc(NC(=O)CC(C(=O)O)N(C)C)cc1 (configuration not stated) | 99 | -21
CCN(CC)c1ccc(/C=C/c2cc(=O)cc(C)o2)cc1 | -61* | -59
CCN(CC)c1ccc(/C=C2/SC(=O)NC2=O)cc1 | 182 | -44
C=Cc1c(C)/c2[n-]/c1=C\c1[n-]c(c(CC)c1C)/C=c1\[n-]c3c(c1C)C(=O)C(C(=O)[O-])C=3c1[n-]c(c(C)c1CCC(=O)[O-])\C=2.[Cu].[Na+].[Na+] (configuration not stated) | · | 52*
CN(CCO)c1nc(N)c2c(N)nc3c(c2c1C#N)CC(=O)N3C1CCCC1 | · | 101*
N#Cc1c(N2CCCC(C(=O)O)C2)nc(N)c2c(N)nc3c(c12)CC(=O)N3C1CCCC1 (configuration not stated) | · | -18
COc1cccc(C(=O)Nc2nnc(SCc3ccccc3)s2)c1 | · | -8
COc1cccc(C(=O)c2sc3nsc(SCc4ccccc4)c3c2N)c1 | -42* | -39
CN(CCCNC(=O)Cc1ccc(NC(=O)N2CCCCc3ccccc32)cc1)Cc1ccccc1 | 105 | -21
COc1cc(/C=C(\C#N)C(=O)NCc2cccnc2)ccc1O | 187 | -65
O/N=C1/CCCc2nn(-c3ccccc3)nc21 | · | 56*
O/N=C1\CCCc2c1nc(-c1ccccc1Cl)n2O | · | -3
CCSc1nc(NC(N)=O)c2c3c(sc2n1)CC(C(C)(C)C)CC3 (configuration not stated) | 105 | -25
CC12CC(c3ccccc3O1)C(C#N)C(=O)N2 (configuration not stated) | 99 | ·
O=c1[nH]c(=O)n(-c2ccccc2)c(O)c1C=Nc1ccc(S(=O)(=O)N2CCCCC2)cc1 | 106 | -8
O=S(=O)(c1ccc(N=Cc2c(O)ccc3ccccc23)cc1)N1CCCCC1 | · | 76*
NS(=O)(=O)c1ccc(N=Cc2c(O)ccc3ccccc23)cc1 | · | 97*
O=S(=O)(/N=C/c1c(O)ccc2ccccc12)c1ccccc1 | 99 | ·

Compounds from the list above with two or more sulfur atoms:
SMILES | GIV-Gai inh | HCMV UL50-53 inh
CCN1C(=O)/C(=C\C=C2/N(CC)c3ccc(C(=O)OC)cc3N2CC)SC1=S | -74* | -44
COc1cccc(C(=O)Nc2nnc(SCc3ccccc3)s2)c1 | · | -8
COc1cccc(C(=O)c2sc3nsc(SCc4ccccc4)c3c2N)c1 | -42* | -39
CCSc1nc(NC(N)=O)c2c3c(sc2n1)CC(C(C)(C)C)CC3 (configuration not stated) | 105 | -25

(next part)
SMILES | GIV-Gai inh | HCMV UL50-53 inh
N#Cc1c(NCc2ccccc2)ncc2c1Nc1ccccc1C2 | 73* | -20
CC(C)c1nc(NCc2ccccc2)c(C#N)c2c1CCCC2 | 100 | -8
CCOC(=O)c1c(S(=O)(=O)NCC(=O)Nc2ccc(F)cc2F)c(C)n(CC)c1C | 100 | ·
CCN(CC)c1ccc(/C=c2\sc3n(c2=O)C(c2ccc(OC)cc2OC)C(C(C)=O)=C(C)N=3)c(OC)c1 (configuration not stated) | 85* | -20
COc1ccc(C2C(C(C)=O)=C(C)N=c3s/c(=C\c4cc(C)n(-c5ccccc5)c4C)c(=O)n32)c(OC)c1 (configuration not stated) | 142 | -21
Cn1cccc1/C=C1\CCc2ccccc2C1=O | 144 | ·
Cn1cccc1/C=C1\CC/C(=C\c2cccn2C)C1=O | -75* | ·
Cc1ccccc1/C=C/c1c[nH]c2ccccc12 | 101 | -15
OCC[n+]1ccc(/C=C/c2c[nH]c3ccccc23)cc1 | -18* | ·
CCNC(=O)C(C)N (configuration not stated) | · | 3
CCN(CC)CCCNC(=O)c1ccc2c(c1)nc1n2CCOC1 | 104 | ·
O=c1cc(N2CCN(S(=O)(=O)c3ccc(F)c(F)c3)CC2)nc2sc(-c3ccccc3)nn12 | 102 | 60*
Cc1ccc(S(=O)(=O)N2CCN(c3cc(=O)n4nc(-c5ccccc5)sc4n3)CC2)cc1 | 104 | 34
CCCc1[nH]n(-c2ccc(F)cc2)c(=O)c1C=Nc1cccc2ccccc12 | 106 | ·
CN(C)c1ccc(/C=C2/CCC/C(=C\c3ccc(N(C)C)cc3)C2=O)cc1 | 188 | -15
CC(C)/C=C1\CC/C(=C\c2ccc(N(C)C)cc2)C1=O | -75* | ·
CCOc1ccc(NC(=O)c2oc3ccc(Br)cc3c2C)c2cccnc12 | 102 | -10

2 entries drawn at random from those above, as already listed:
SMILES | GIV-Gai inh | HCMV UL50-53 inh
CCNC(=O)C(C)N (configuration not stated) | · | 3
N#Cc1c(NCc2ccccc2)ncc2c1Nc1ccccc1C2 | 73* | -20

Screening data (PubChem)
